For this assay, the target named is T1, recombinant human GCase (rhGCase) (Homo sapiens, UniProt P04062).
T1 sequence (P04062 40-536): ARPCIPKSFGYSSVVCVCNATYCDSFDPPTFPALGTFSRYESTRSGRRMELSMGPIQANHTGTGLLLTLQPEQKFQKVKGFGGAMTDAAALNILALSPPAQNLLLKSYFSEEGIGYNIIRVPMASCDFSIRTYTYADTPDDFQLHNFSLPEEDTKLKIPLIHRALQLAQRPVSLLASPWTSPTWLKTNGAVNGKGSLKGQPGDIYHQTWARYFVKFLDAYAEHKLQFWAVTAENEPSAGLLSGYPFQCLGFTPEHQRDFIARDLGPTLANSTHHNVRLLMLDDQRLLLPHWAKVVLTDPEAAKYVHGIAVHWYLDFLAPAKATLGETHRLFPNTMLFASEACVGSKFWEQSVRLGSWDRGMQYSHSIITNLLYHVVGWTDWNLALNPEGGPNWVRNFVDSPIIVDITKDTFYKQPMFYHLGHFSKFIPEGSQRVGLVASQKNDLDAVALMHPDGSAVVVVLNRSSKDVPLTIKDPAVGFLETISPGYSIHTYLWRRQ
It counts as cell-based.

As a reminder, the IC50 is the concentration that inhibits the measured activity by half. In the case of `O[C@H]1[C@H](O)CNC[C@@H]1C(F)F` [AT3375], the 50% inhibitory concentration (IC50) was 6 ± 3 nM.

Source of the values: paper PMC12560045 (Chemical Science, 2025).
